Data published in publication PMC4841536, “Characterization of the Anti-HCV Activities of the New Cyclophilin Inhibitor STG-175” (PLoS ONE, 2016).

The chains behind the UniProt entries cited, without tags or fusion partners.
UniProt P62937, whole entry: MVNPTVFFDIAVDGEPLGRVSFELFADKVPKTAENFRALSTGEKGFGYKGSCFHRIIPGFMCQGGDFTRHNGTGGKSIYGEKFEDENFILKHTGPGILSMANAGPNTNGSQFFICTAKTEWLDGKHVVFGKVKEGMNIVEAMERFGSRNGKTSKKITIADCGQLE

Target: T1, Human recombinant CypA (Homo sapiens, UniProt P62937)
T1 construct: purchased Atgen
Test: α-chymotrypsin-coupled PPIase assay, CypA isomerase activity
Type: biochemical
Settings: 5°C, 10 concentrations 0.05–1000 nM; read-out: IC50, neutralization of the isomerase activity of CypA
Experimental: Inhibition of CypA and CypD isomerase activities were quantified using a α-chymotrypsin-coupled assay adapted to a 96-well plate format. Human recombinant CypA or CypD (Atgen) was dissolved to 10 nM in PPIases buffer (50 mM Hepes, 100 mM NaCl, 1 mg/ml bovine serum albumin, 1 mg/ml α-chymotrypsin; pH 8). Succinyl-AAPF-pNA peptide substrate (Sigma) was dissolved to 3.2 mM in LiCl/trifluoroethanol. Each CypI was prepared at 10 concentrations in DMSO, then diluted into CypA/D PPIase buffer to 0.05–1000 nM. Incubations were performed at 5°C. Ninety five μL of reaction mix was added to 5 μL peptide in 96-wells and OD405 nm measured at 6-sec intervals for 6 min using a Biotek Synergy H4 plate reader. Data were fitted with Graphpad Prism 6.0 to acquire first-order rate constants, which were calculated by subtracting the rate constant from uncatalyzed reactions (no CypA/D). […]
The inhibition of the isomerase activities of CypA and CypD were measured with 10 increasing concentrations of STG-175 to quantify IC50 values.
Fig 1 Anti-PPIase and immunosuppressive activities of STG-175. […] Inhibition of CypA (B) and CypD (C) isomerase activities were assessed using the α-chymotrypsin-coupled assay. […] D. IL-2 promoter activation upon T-cell stimulation was determined using an engineered Jurkat T-cell line, which expresses betagalactosidase. […] The Y-axis values are expressed as percentage of activity. […]

Q: C/C=C/C[C@@H](C)[C@@H](O)[C@H]1C(=O)N[C@@H](CC)C(=O)N(C)[C@H](SCCN(C)C)C(=O)N(C)[C@@H](CC(C)(C)O)C(=O)N[C@@H](C(C)C)C(=O)N(C)[C@@H](CC(C)C)C(=O)N[C@@H](C)C(=O)N[C@H](C)C(=O)N(C)[C@@H](CC(C)C)C(=O)N(C)[C@@H](CC(C)C)C(=O)N(C)[C@@H](C(C)C)C(=O)N1C [SCY-635] was tested. Which IC50 did it give?
A: The IC50 was 4.8 nM.
